The list shows a part of the results, in another mix than the full data. Activity calls are given as the source filed them.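 Rule for the calls: active = activation at 2 µM above a set limit, the mean plus 5 SD (cut at about 37% in these data); inactive = the rest.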

Chains of the proteins cited; added tags and fusions are not shown.
UniProt Q9Y2R2, whole entry, looked up: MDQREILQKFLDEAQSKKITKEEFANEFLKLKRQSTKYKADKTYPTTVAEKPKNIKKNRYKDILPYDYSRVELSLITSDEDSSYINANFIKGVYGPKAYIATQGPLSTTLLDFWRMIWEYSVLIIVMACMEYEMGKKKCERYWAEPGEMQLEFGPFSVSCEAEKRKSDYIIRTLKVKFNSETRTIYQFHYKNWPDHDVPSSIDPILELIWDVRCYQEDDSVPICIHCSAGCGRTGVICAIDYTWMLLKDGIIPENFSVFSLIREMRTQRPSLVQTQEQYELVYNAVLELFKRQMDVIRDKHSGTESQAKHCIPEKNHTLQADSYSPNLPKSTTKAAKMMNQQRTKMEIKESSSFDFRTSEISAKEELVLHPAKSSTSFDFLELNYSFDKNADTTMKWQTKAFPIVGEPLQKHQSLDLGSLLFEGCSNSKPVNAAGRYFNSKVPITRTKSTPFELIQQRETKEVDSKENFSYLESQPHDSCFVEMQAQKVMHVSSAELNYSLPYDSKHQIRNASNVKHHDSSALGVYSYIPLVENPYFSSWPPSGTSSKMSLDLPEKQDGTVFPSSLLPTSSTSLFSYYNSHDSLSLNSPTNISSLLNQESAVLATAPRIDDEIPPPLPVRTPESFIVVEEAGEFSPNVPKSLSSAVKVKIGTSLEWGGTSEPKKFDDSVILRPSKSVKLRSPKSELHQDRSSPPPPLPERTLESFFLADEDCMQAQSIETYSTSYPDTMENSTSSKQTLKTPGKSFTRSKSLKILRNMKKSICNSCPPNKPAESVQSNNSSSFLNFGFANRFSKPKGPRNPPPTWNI

The target in this assay is Tyrosine-protein phosphatase non-receptor type 22 (Homo sapiens) (UniProt Q9Y2R2). Description: LYP phosphatase activators, primary screen, biochemical, DiFMUP fluorescence, 2 µM (AID 697). The following applies: recombinant LYP, at 2 µM, active compounds read high, 0 = plate median, 100 = signal doubled.
`CCOP1(=S)c2c(C)nn(CCC#N)c2N=C(c2ccccc2F)N1C` (stereo not drawn): the activation was inactive: -5.9%. For `CCOP1(=S)c2c(C)nn(CCC#N)c2N=C(c2ccc(F)cc2)N1C` (stereo not drawn) the value was inactive: -7%. `O=[N+]([O-])c1ccc2c(c1)nnn2O`: the activation was inactive: 2.2%. Consider `Cc1cccc(OCC(=O)OC2CN3CCC2CC3)c1` (stereo not drawn), for which the activation was inactive: 3.9%. `O=P1(Nc2ccccn2)COc2ccccc2OC1`: the activation is inactive: 1.3%.

With `Clc1n[nH]nc1-c1nn[nH][15n]1`, the activation was inactive: -2%.

Turning to `CC1(CBr)Cn2c(nc3ccccc3c2=O)S1` (stereo not drawn), the activation is inactive: 3.6%.

As to `Cc1nn(-c2ccccc2)c2c1P(=O)(N1CCOCC1)N(C)C(c1ccccc1)=N2` (stereo not drawn), the activation is inactive: 5.2%.

Consider `O=P1(Nc2ncccn2)COc2ccccc2OC1`, for which the activation was inactive: -8.6%.

For the compound `Cc1ccc(OCC(=O)OC2CN3CCC2CC3)cc1` (stereo not drawn), the activation was inactive: 7.3%.

On to `O=P1(Nc2ccc(Br)cn2)COc2ccccc2OC1`, for which the activation is inactive: 5.6%. Consider `COP1(=S)c2c(C)nn(CCC#N)c2N=C(c2ccc(F)cc2)N1C` (stereo not drawn), for which the activation is inactive: 1.4%. For `O=C(COc1ccccc1)OC1CN2CCC1CC2` (stereo not drawn) the value was inactive: -3.1%; for `CCC(C)N(CC(C)C)C(=S)SC(NC(C)=O)C(Cl)(Cl)Cl` (stereo not drawn), inactive: 1%.

`O=C(OC1CN2CCC1CC2)C12CC3CC(CC(C3)C1)C2` (stereo not drawn): the activation is inactive: -10.7%. Consider `ClCCSc1nnc(-c2cccnc2)o1`, for which the activation was inactive: 2%.

As for `CCN(CC)C(=S)SC(NC=O)C(Cl)(Cl)Cl` (stereo not drawn), the activation was inactive: 4.7%. For the compound `CCOP(=O)(Nc1ccccc1)OCC`, the activation is inactive: -3.9%. As to `CN1CCCC(OC(=O)C(c2ccccc2)c2ccccc2)C1` (stereo not drawn), the activation was inactive: 8.6%. On to `Oc1ccccc1CNc1ccccn1`, for which the activation is inactive: -12.3%. Then `Cc1c2non([O-])c-2c(C)[n+](=O)[n+]1[O-]`, with inactive: 18%; and `CC(C)CC(=O)NC(Sc1ccc(Cl)cc1)C(Cl)(Cl)Cl` (stereo not drawn), with inactive: 6.7%; and `CCc1nc2c(n1)c1c(non1O)c1c2no[n+]1[O-]`, with inactive: 8%. On to `O=[N+]([O-])c1cccc2n[nH]nc12`, for which the activation was inactive: 4.1%. For `CC(=O)N1C2C3N(C(C)=O)C1C1N(C(C)=O)C(C(N1C(C)=O)N3C(C)=O)N2C(C)=O`, the activation was inactive: -0.2%. With `CC1CCN(C(=O)Oc2c(Cl)cc(Cl)c3cccnc23)CC1`, the activation is inactive: -3.5%.

As for `O=C(OC1CN2CCC1CC2)c1cccc(Cl)c1` (stereo not drawn), the activation is inactive: 9.1%. For `O=P(Nc1nccs1)(c1ccccc1)c1ccccc1` the value was inactive: 3.3%; for `c1nnnn1CCn1cnnn1`, inactive: 8.6%. Then `O=P1(Nc2nc3ccc(Cl)cc3s2)COc2ccccc2O1` (stereo not drawn), with inactive: 9.3%; and `CCOC(=O)NC(Sc1ccccc1)C(Cl)(Cl)Cl` (stereo not drawn), with inactive: -5.8%. For `CCC(=O)N1C2C3N(C(=O)CC)C1C1N(C(=O)CC)C(C(N1C(=O)CC)N3C(=O)CC)N2C(=O)CC` the value was inactive: 14.9%.

As for `COC(=O)c1cc2c(s1)N=C(c1ccccc1)N(C)P2(=O)N1CCOCC1` (stereo not drawn), the activation is inactive: -2.1%.

Values taken from PubChem BioAssay AID697 (Columbia University Molecular Screening Center, 2007).
